Screens (PubChem BioAssay)
MC4R antagonist – antagonists of human melanocortin 4 receptor (MC4R) | 360,000 compounds, 0.48% hits | inhibition, % at 6.5 µM | MC4R-expressing cells, MTII-stimulated cAMP, LANCE TR-FRET;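 active = inhibition above its plate's cutoff, the mean of tested wells on that plate plus 3 SD, cut at about 29% in these data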;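 also: 0% = Melanotan II alone and 100% = Melanotan II plus saturating MCL0020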
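Test system: U2OS cells stably expressing human melanocortin 4 receptor (MC4R); also added: Melanotan II challenge; compound: 6.5 µM single dose; timing: 30-min compound preincubation, 1-h Melanotan II challenge, 1-h detection, room temperature; signal: Eu-cAMP/anti-cAMP TR-FRET, emission 671 nm; repeats: one well per compound, no replicates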
NALP1 yeast inh – inhibitors of NALP1 inflammasome in yeast; 280,000 compounds, 0.61% hits; S. cerevisiae NALP1/ASC/caspase-1 growth, X-gal OD620, 72 h; inhibition, % at 10 µM; in the data active = inhibition mostly above about 24%, no sharp cut-off; inactive = mostly below about 32%
HDAC3 inhib – blocks human histone deacetylase 3 | 320,000 compounds, 0.15% hits | recombinant HDAC3, fluorogenic peptide/trypsin coupled, fluorescence | O15379 | inhibition, % at 8.3 µM | AID 2718; in the data active = inhibition above about 26%, passing the limit was not always enough; inconclusive = no clear call, values can overlap the other calls
ALR H2O2 inh – blocks human ALR sulfhydryl oxidase activity | inhibition, % (concentration not given with the values) | AID 485317 | P55789 | 290,000 tested, 3.8% active | purified ALR, DTT oxidation, H2O2 HRP-luminol luminescence;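 active = mean and each replicate at 75% or more; inconclusive = only one of the two met; inactive = neither met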;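 note: stock transfer was 7.5 nL into about 7.5 µL; 0% = neutral wells and 100% = wells with inactivated enzyme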
UUG fidelity – yeast start codon fidelity modulation; AID 602363; activity score, % at 18.7 µM; S. cerevisiae UUG-firefly luciferase reporter, luminescence/redox ratio; 0.13% of 350,000 active;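 active means replicate mean at a twofold rise or more, about +100% in these data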;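 further: firefly luciferase made from a UUG start codon reports start codon fidelity; reporter light over untreated wells divided by growth signal over untreated wells; some hits fall short of that in this replicate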
MC4R ag barr – human MC4R agonism via beta-arrestin; P32245; U2OS MC4R beta-arrestin complementation, luminescence; percent of melanotan II response, DMSO zero; activation, % at 8.9 µM; 360,000 compounds, 0.98% hits;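 active = activation above a per-plate cutoff, the mean activation of sample wells on that plate plus 3 SD, cut at about 8% in these data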
MC4R barr conf – human MC4R beta-arrestin agonism confirmation | shares compounds with MC4R ag barr | U2OS MC4R beta-arrestin recruitment, luminescence; scaled DMSO 0%, Melanotan II 100% | activation, % at 8.9 µM | 2,400 compounds, 31% hits | AID 602192;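 active = mean activation across replicates above the hit cutoff set in the earlier primary screen, cut at about 8% in these data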
MOR-DOR barr ag – activates mu-delta opioid heterodimer, MC4R agonist counter-screen; AID 602194; 2,400 compounds, 5.8% hits; shares compounds with MC4R ag barr; activation, % at 9.2 µM; U2OS PathHunter beta-arrestin, beta-gal luminescence; percent of deltorphin B response, DMSO zero;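 active = mean activation across replicates exceeds the hit threshold derived in the earlier primary screen, cut at about 18% in these data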;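 also: 100% = deltorphin B at 0.9 µM final and 0% = DMSO alone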
Starred values were filed as active, the others as inactive; u = inconclusive; x = not tested or not shown; ! = a repeat was not active. The list is not random: actives were taken first. Their share in the collection is about 4.2%.

SMILES	MC4R antagonist	NALP1 yeast inh	HDAC3 inhib	ALR H2O2 inh	UUG fidelity	MC4R ag barr	MC4R barr conf	MOR-DOR barr ag
C[C@H](CO)N1C[C@H](C)[C@H](CN(C)C(=O)Nc2cccc3ccccc23)Oc2ccc(NC(=O)C3CCCCC3)cc2CC1=O	x	x	x	x	0	x	x	x
O=C(C[C@@H]1C[C@@H]2c3cc(NC(=O)Nc4ccccc4)ccc3O[C@@H]2[C@H](CO)O1)NCC(F)(F)F	x	x	x	x	-3	x	x	x
O=C(COC(=O)c1sc2ccccc2c1Cl)Nc1ncc(Cl)cc1Cl	-5	24	-2	-8	x	27*	-2	4
Cc1sc(NC(=O)Cn2c(=O)oc3ccccc32)nc1-c1ccc(Cl)cc1	0	16	5	-5	x	13*	3	7
CCc1nnc(NC(=O)Cn2c(=O)oc3ccccc32)s1	-2	0	4	-5	2	-2	x	x
COc1ccc(-c2cc(C#N)nc(Cl)n2)cc1	-26	x	0	16	x	-4	x	x
COc1ccc(-c2cc(C#N)nc(Oc3ccc(Cl)cc3)n2)cc1	2	15	x	x	x	11*	2	3
NS(=O)(=O)c1ccc(NC(=S)N2CCN(c3ccc(Cl)c(Cl)c3)CC2)cc1	-3	18	x	x	-18	12*	-3	3
COc1ccc(CN(C)C[C@H]2OCCCC[C@H](C)Oc3ccc(NC(=O)c4ccncc4)cc3C(=O)N([C@H](C)CO)C[C@H]2C)cc1	x	x	x	x	-3	x	x	x
CCOC(=O)c1nn(-c2ccccc2F)c2nc(-c3ccco3)c(C#N)c(=O)n12	21	23	x	x	x	6	x	x
CCOC(=O)c1nn(-c2cccc(OC)c2)c2nc(CC)c(C#N)c(=O)n12	7	24	-2	5	-14	11*	5	5
CC(C)(C)c1cc(-c2ccco2)c(C#N)c(SCC#N)n1	13	x	5	-2	-13	19*	1	7
CCSc1nc(C2CC2)cc(-c2ccco2)c1C#N	3	0	-4	9	-7	-1	x	x
CCOc1ncccc1C(=O)Nc1cccc(-c2nc3cccnc3s2)c1	-6	x	-12	-7	x	17*	8	3
CCOC(=O)c1[nH]c(C)c(C(=O)OCc2ccccc2F)c1C	-14	22	-3	2	-12	26*	3	7
CCOC(=O)c1[nH]c(C)c(C(=O)OCCOc2cccc(C)c2)c1C	-1	13	1	-22	x	12*	8.5*	6
CC(=O)c1c(C)[nH]c(C(=O)OCC(=O)NCCc2ccc(F)cc2)c1C	4	12	16	-21	-1	0	x	x
CCOC(=O)c1c(C)[nH]c(C(=O)NNC(=O)c2ccccc2F)c1C	7	x	-3	61	x	3	x	x
CCc1c(C)[nH]c(C(=O)OCc2ccccc2)c1C	-1	5	x	x	-9	10*	1	8
COC(=O)c1c(C)[nH]c(C(=O)OCc2ccc(F)cc2)c1C	-2	-3	16	-12	-15	12*	1	7
C[C@H](CO)N1C[C@H](C)[C@@H](CN(C)C(=O)Nc2ccc(C(F)(F)F)cc2)Oc2ccc(NC(=O)Cc3cn(C)c4ccccc34)cc2C1=O	x	x	x	x	-11	x	x	x
COC(=O)c1c(C)[nH]c(C(=O)CSc2ccc(Cl)cc2)c1C	8	3	-3	-10	-15	29*	11*	6
O=C(COC(=O)c1ccc2ncsc2c1)Nc1cc([N+](=O)[O-])ccc1Cl	1	x	-7	0	-18	23*	8	13
CCS(=O)(=O)Nc1ccc2c(c1)C(=O)N(C)[C@@H]1CC[C@H](CC(=O)NC3CCCCC3)O[C@@H]1CO2	x	x	x	x	12	x	x	x
O=C(CCc1c[nH]c2ccccc12)NCC1COc2ccccc2O1 (stereo not drawn)	14	5	-3	12	x	11*	-3	1
CCC(C)Sc1ccc(-c2nc3ccc(C)cn3c2NCc2ccccc2)cc1 (stereo not drawn)	10	x	x	x	-30	12*	5	8
Cc1ccc2nc(-c3ccc(-c4cccc(Cl)c4)cc3)c(NCc3ccccc3)n2c1	2	x	-12	x	-8	4	x	x
CCCCOC(=O)Cn1c(=N)n(CCN2CCOCC2)c2ccccc21	5	x	-6	-8	-17	1	x	x
CCCCCCCCCCOC(=O)Cn1c(COc2ccccc2)[n+](C)c2ccccc21	-4	22	20	-12	-19	18*	29*	23*
CCCCCOC(=O)Cn1c(=O)oc2ccccc21	21	22	-3	26	-13	1	x	x

2 entries picked at random from the list so far, as already listed:
SMILES	MC4R antagonist	NALP1 yeast inh	HDAC3 inhib	ALR H2O2 inh	UUG fidelity	MC4R ag barr	MC4R barr conf	MOR-DOR barr ag
CCCCCOC(=O)Cn1c(=O)oc2ccccc21	21	22	-3	26	-13	1	x	x
O=C(COC(=O)c1ccc2ncsc2c1)Nc1cc([N+](=O)[O-])ccc1Cl	1	x	-7	0	-18	23*	8	13

An excerpt from above in order of the UUG fidelity value, largest number first:
SMILES	UUG fidelity
CCS(=O)(=O)Nc1ccc2c(c1)C(=O)N(C)[C@@H]1CC[C@H](CC(=O)NC3CCCCC3)O[C@@H]1CO2	12
CCCCOC(=O)Cn1c(=N)n(CCN2CCOCC2)c2ccccc21	-17
CCCCCCCCCCOC(=O)Cn1c(COc2ccccc2)[n+](C)c2ccccc21	-19
CCC(C)Sc1ccc(-c2nc3ccc(C)cn3c2NCc2ccccc2)cc1 (stereo not drawn)	-30

Additional results follow:
SMILES	MC4R antagonist	NALP1 yeast inh	HDAC3 inhib	ALR H2O2 inh	UUG fidelity	MC4R ag barr	MC4R barr conf	MOR-DOR barr ag
CCCCCCCCCCOC(=O)Cn1c(COc2ccc(OC)cc2)[n+](C)c2ccccc21	8	22	u	-23	-29	35*	19*	24*!
CCCCCCCCCCOC(=O)Cn1c(COc2cccc(C)c2)[n+](C)c2ccccc21	-5	8	u	-42	-13	19*	28*	15
Cc1ccc(Cl)cc1NC(=O)c1ccccc1OCC(=O)Nc1ccc(Cl)cc1	23	22	8	-1	x	15*	8.2*	8
Cc1cccc(NC(=O)c2ccccc2OCC(=O)c2ccc(F)cc2)c1	10	26	1	-3	x	-1	x	x
Cc1ccc(NC(=O)c2ccccc2OCC(=O)c2ccc(F)cc2)cc1	2	11	-2	7	-16	51*	18*	8
CC(=O)N(C[C@@H]1N[C@@H](CO)[C@H]1c1ccc(-c2ccccc2)cc1)C(C)C	x	x	x	x	13	x	x	x
CCN1C(=O)/C(=C/C=C2\C=CN(CC)c3ccccc32)SC1=S	-5	14	6	9	-13	-1	x	x
CCCCCCN1C=C/C(=C\C=C(C#N)C#N)c2ccccc21	-1	4	0	2	x	11*	12*	13
CC(C)C(=O)Nc1ccc2c(c1)C(=O)N(C)[C@@H]1CC[C@H](CC(=O)NCCCN(C)C)O[C@H]1CO2	x	x	x	x	-24	x	x	x
O=C(COc1ccc2c(c1)OCO2)Nc1ccc2c(c1)oc1ccccc12	0	13	-4	-4	-3	22*	21*	3
O=C(Nc1ccc2c(c1)oc1ccccc12)c1ccc2c(c1)OCO2	5	13	2	-7	6	0	x	x
Cc1ccc(-c2nn3c(C)nnc3s2)cc1NC(=O)c1ccc(-c2cccc(Cl)c2)o1	2	13	x	x	-21	13*	0	3
Cc1ccc(-c2nn3c(C)nnc3s2)cc1NC(=O)c1ccc(-c2ccc(Cl)cc2Cl)o1	6	5	0	x	-21	1	x	x
